According to US7629379B2, “Substituted phosphonate fluorescent sensors and use thereof” (Queen Mary & Westfield College, priority 2003, dated 2009):

Experiments:
Fibrosarcoma cells = conditions: in BME, 37° C., 5% CO2, 30 minutes, washed with PBS
[1] = Fluorescence titration with SrCl2; conditions: ethanolic solution 1 mM, after addition of 1 equivalent SrCl2
[2] = Fluorescence titration with Ni^+2; conditions: ethanolic solution 1 mM, first addition
[3] = Fluorescence titration with Mg^+2; conditions: ethanolic solution 1 mM
[4] = Fluorescence titration with Zn^+2; conditions: ethanolic solution 1 mM
[5] = Fluorescence titration with Cu^+2
[6] = Fluorescence titration with Ca^+2; conditions: ethanolic solution 1 mM
[7] = Fluorescence titration with VO^+2
[8] = Fluorescence titration with Mn^+2; conditions: ethanolic solution 1 mM, first addition
[9] = Fluorescence titration with Co^+2; conditions: ethanolic solution 1 mM, first addition
[10] = system: Zn^+2 in fibrosarcoma cells; experiment: Imaging of Zn^+2 in fibrosarcoma cells; type: cell-based
Slices of rat brain = experiment: Penetration into rat brain slices, fluorescence microscopy; conditions: slices 8-30 μm, in BME, one hour, washed with PBS

Row | Substance | uptake into cells (Fibrosarcoma cells) | increase in fluorescence intensity [1] | effect of Ni^+2 on emission intensity [2] | effect of Mg^+2 on fluorescent intensity [3] | Zn^+2 concentration that can be sensed (down to) [4] | increase in fluorescence intensity (fold, in words) ([4]; one equivalent of Zn^+2) | cupric concentration that can be sensed (down to) [5] | Cu^+2 equivalents at which the new peak at 500 nm plateaus ([5]; ethanolic solution 1 mM) | effect of Cu^+2 on intensity of the peaks at 400 and 575 nm ([5]; ethanolic solution 1 mM) | effect of Ca^+2 on fluorescent intensity [6] | vanadyl concentration that can be sensed (down to) [7] | VO^+2 equivalents at which the new peak at 500 nm plateaus ([7]; ethanolic solution 1 mM) | effect of VO^+2 on emission intensity at the 400 nm peak ([7]; ethanolic solution 1 mM) | effect of Mn^+2 on emission intensity [8] | effect of Co^+2 on emission intensity [9] | fluorescence intensity in cells with added zinc chloride solution ([10]; 100 μl, 50 μM in BME, 0.5 up to 5 μl of added zinc solution, 37° C., 5% carbon dioxide) | fluorescence intensity within the cells with increased amounts of Zn^+2 ([10]; BME solutions) | penetration of brain cell types and regions (Slices of rat brain)
1 | diethyl 4-(1,3-diphenyl-5-pyrazolyl) phenoxy methylphosphonate | taken up in the cytoplasm within the fibrosarcoma cells |  |  |  |  |  |  |  |  |  |  |  |  |  |  |  |  | 
2 | diethyl 8-quinolyloxy methylphosphonate | taken up in the cytoplasm within the fibrosarcoma cells | 50% | large decrease in emission intensity | no significant effect | 60 ηM | four-fold increase | 10^−6 M | 0.4 eq | decrease in intensity | no significant effect | 10^−6 M | 0.5 eq | drcrease in the emission intensity | large decrease in emission intensity | large decrease in emission intensity |  |  | 
3 | diethyl (9-anthracyl)-N-2,4-dichlorobenzylamine-methylphosphonate | taken up in the cytoplasm within the fibrosarcoma cells |  |  |  |  |  |  |  |  |  |  |  |  |  |  | progressive, significant and reproducible increases in fluorescence intensity | progressive increase in fluorescence intensity within the cells | went into neurons and glial cells
